Results from patent US6632977B2 (priority 1996, dated 2003).
Where two headings read alike, the source gives them in different places.

Chains of the proteins cited; added tags and fusions are not shown. Lines headed by an entry give the natural chain unless they say otherwise; changes in a name come on top.
UniProt P32300, whole entry: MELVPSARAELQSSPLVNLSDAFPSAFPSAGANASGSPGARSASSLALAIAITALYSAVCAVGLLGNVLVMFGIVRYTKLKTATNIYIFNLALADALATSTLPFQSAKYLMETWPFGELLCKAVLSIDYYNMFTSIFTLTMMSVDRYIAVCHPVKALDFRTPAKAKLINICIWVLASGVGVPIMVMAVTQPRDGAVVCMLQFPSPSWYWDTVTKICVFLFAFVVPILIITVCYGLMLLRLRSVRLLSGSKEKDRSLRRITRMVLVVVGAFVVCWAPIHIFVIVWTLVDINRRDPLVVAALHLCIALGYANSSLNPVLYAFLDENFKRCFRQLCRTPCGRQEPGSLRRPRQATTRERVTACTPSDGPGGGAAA

Tests used:
δ receptor [1] = target: T1, δ receptor (Mus musculus, UniProt P32300); settings: for Deltorphin I Bmax: kappa receptor gene line
δ receptor [2] = target: T1, δ receptor

In the case of `CC(C)[C@H](NC(=O)[C@H](CC(=O)O)NC(=O)[C@H](Cc1ccccc1)NC(=O)[C@@H](C)NC(=O)[C@@H](N)Cc1ccc(O)cc1)C(=O)N[C@H](C(=O)NCC(N)=O)C(C)C` [Deltorphin I, D-Ala^2deltorphin I], the “change in binding of the delta ligands” value (δ receptor [1]; kappa mutant animals with respect to wild animals) is reported as “no change in the binding”, the “Deltorphin I Bmax” value (δ receptor [1]; heterozygous +/−) is reported as 0.099 pmole/mg proteins and the “Deltorphin I Bmax” value (δ receptor [1]; homozygous −/−) is reported as 0.090 pmole/mg proteins. The “Deltorphin I Bmax” value (δ receptor [1]; wild +/+) was 0.089 pmole/mg proteins, the “distribution of binding sites” value (δ receptor [2]; kappa receptor deficient mice) was “not altered” and the “number of δ receptors detected by autoradiography” value (δ receptor [2]; −/− MOR mouse versus wild-type) was “lower number of receptors”.
